This is a selection; strong and weak results do not stand in their true shares. Activity calls are given as the source filed them. Rule as the data show it: active = inhibition above about 4.5%; inactive = the rest.
Tested on: Methionine sulfoxide reductase A (Bos taurus)
Assay: inhibition of methionine sulfoxide reductase A – biochemical, absorbance, bovine, HTS, primary screen (AID 651718);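 also: 0% = vehicle wells with enzyme and 100% = reference inhibitor wells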
Conditions: purified bovine MsrA, absorbance read-out; at 15.5 µM; active compounds read high

SMILES | inhibition
CCC(=O)N(c1ccccc1)C1(COC)CCN(CCc2cccs2)CC1 | inactive: -1.18%
CCC(=O)N(c1ccccc1)C1(COC)CCN(CCn2nnn(CC)c2=O)CC1 | inactive: 1%

From PubChem BioAssay AID651718 (The Scripps Research Institute Molecular Screening Center, 2012)
